Measured values published in paper PMC5059758, “Structural characterization of antibiotic self-immunity tRNA synthetase in plant tumour biocontrol agent” (Nature Communications, 2016).

Test system: LeuRSAt Triad (P45T/N105A/M633Q)
Assay: Aminoacylation assay, LeuRSAt Triad mutant
Assay type: biochemical, A. tumefaciens
Details: kinetic inhibition experiments

Structure (SMILES): CC(C)[C@@H](O)[C@H](O)C(=O)NP(=O)(O)OC[C@@H]1C[C@H](O)[C@H](n2cnc3c(N)ncnc32)O1 [TM84]
- TM84 concentrations to which the enzyme was resistant: up to 500 nM
